AlphaSeq binding of Ab-14 light chain variants to a spike HR2 peptide

Source: Engelhart et al. 2022 (doi:10.1038/s41597-022-01779-4), MIT Lincoln Laboratory and A-Alpha Bio; data file from the FLAb repository.

The target is the same throughout: PDVDLGDISGINAS, from the HR2 region of SARS-CoV-2 spike.

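The starting antibody came from a phage panning campaign against this peptide. The library (AAYL50) carries one to three amino acid substitutions per variant, with no insertions or deletions. The scFvs were displayed on barcoded MATa yeast, the peptide on MATalpha yeast. Mating (16 h, 30 °C) was followed by selection of diploids and sequencing of their barcodes. A regression on co-assayed BCL2-family reference pairs converts the normalised counts of each replicate to an apparent Kd. Mating was done three times.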

Ab-14 is the parent antibody, in scFv form: VH, then a (GGGGS)3 linker, then VL. The heavy chain is unchanged in all variants.
VH: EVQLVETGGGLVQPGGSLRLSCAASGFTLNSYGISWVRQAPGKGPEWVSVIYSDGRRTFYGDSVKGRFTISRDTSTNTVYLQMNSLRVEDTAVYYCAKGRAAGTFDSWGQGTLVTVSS
VL: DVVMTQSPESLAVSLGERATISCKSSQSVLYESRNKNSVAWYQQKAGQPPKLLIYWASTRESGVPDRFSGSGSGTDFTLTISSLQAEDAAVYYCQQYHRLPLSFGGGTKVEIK

Changes read parent residue, position, new residue, counted from the first residue of the VL shown.
Kd is apparent (estimated from mating counts) and averaged on the log scale over replicates with a signal. Smaller is tighter.
"nd" means that the variant was in the library but no mating with the target was seen in any replicate; the authors take this as a sign of poor binding, and no number exists.
Entries are sorted by rising average, undetected variants last.
Parent in this assay: reference entry 4.4 nM, copy in this library 48 nM.

| changes | Kd (apparent) | detected |
|---|---|---|
| Y31D T59E | 1.2 nM | 3/3 |
| V29L L30Q H98T | 3.4 nM | 3/3 |
| S25I N35Y L100F | 4.1 nM | 3/3 |
| S25C S26P H98I | 5.5 nM | 3/3 |
| S26F H98F | 6.1 nM | 3/3 |
| K36W P101D | 6.9 nM | 3/3 |
| E32Q K36M | 7.2 nM | 3/3 |
| S26G Q27D R99H | 11 nM | 3/3 |
| S33W H98D | 15 nM | 3/3 |
| N35Q E61D S103T | 20 nM | 3/3 |
| S33T R34H W56V | 21 nM | 3/3 |
| K24T K36C S62E | 21 nM | 3/3 |
| V29T S58D H98P | 45 nM | 3/3 |
| N35S T59I S103H | 48 nM | 3/3 |
| Y31W N35A S58Q | 73 nM | 3/3 |
| S26I K36I S103D | 79 nM | 1/3 |
| T59D L100C L102T | 80 nM | 3/3 |
| E32F R34C E61A | 82 nM | 3/3 |
| K24Q H98I R99G | 110 nM | 3/3 |
| T59E H98L | 130 nM | 3/3 |
| S28W L30I H98W | 150 nM | 3/3 |
| K24T S26V V29Q | 250 nM | 3/3 |
| Y31L Y97Q L100G | 320 nM | 3/3 |
| Y31I Q95A L100K | 330 nM | 2/3 |
| R34P T59D | 420 nM | 1/3 |
| Y31C R99G P101I | 550 nM | 3/3 |
| S38Q R99Y | 580 nM | 3/3 |
| S25R S28Q P101Q | 610 nM | 3/3 |
| V29P S33P S38Y | 670 nM | 2/3 |
| K24C Q27L S103F | 680 nM | 3/3 |
| K24F L30W Y97I | 690 nM | 3/3 |
| S58R E61C Y97F | 700 nM | 3/3 |
| V29C R99H P101W | 780 nM | 3/3 |
| V29N L102T S103T | 910 nM | 1/3 |
| N35V E61W P101Y | 1.2 µM | 3/3 |
| E32K K36H L102A | 1.3 µM | 3/3 |

Second part, the sequence after the result:

| Kd (apparent) | detected | changes |
|---|---|---|
| 1.8 µM | 1/3 | E32T A57F L102P |
| 1.9 µM | 1/3 | S25G N37R Q95T |
| 2.0 µM | 3/3 | L30W A57D R60I |
| 3.9 µM | 1/3 | E32V S33Q K36A |
| 5.4 µM | 1/3 | Y31L A40T A57M |
| 14 µM | 2/3 | K24V N37T T59K |
| 17 µM | 1/3 | K24N S26Y E61P |
| 18 µM | 3/3 | N37G S58M E61Q |
| 18 µM | 1/3 | Q27P A57F L102P |
| 45 µM | 1/3 | S26Y N35V V39D |
| 66 µM | 1/3 | L30C N37V Y97I |
| 74 µM | 2/3 | V29A S62M Q95D |
| 110 µM | 1/3 | V39H R60M Q96M |
| 260 µM | 1/3 | K24T A57W L100I |
| 420 µM | 2/3 | N35T N37P A40F |
| 670 µM | 1/3 | Y31K S33T S62W |
| 840 µM | 1/3 | R34F R60W Y97H |
| 940 µM | 1/3 | A40L Q96P |
| 1.8 mM | 1/3 | S26N E32T V39T |
| nd | 0/3 | N37D S62R Y97K |
| nd | 0/3 | L30R A40D L100A |
| nd | 0/3 | Q27W S33I A40P |
| nd | 0/3 | V39T P101Y S103R |
| nd | 0/3 | S25R L30C L102T |
| nd | 0/3 | E32L R34P S103A |
| nd | 0/3 | S28G H98P L102K |
| nd | 0/3 | A57Q Q95M R99F |
| nd | 0/3 | Q27W S38V P101R |
| nd | 0/3 | R60P S62V H98P |
| nd | 0/3 | Q95H Q96T L100C |
| nd | 0/3 | R60P Q95V R99S |
| nd | 0/3 | K24M S58R Y97P |
| nd | 0/3 | V29E E61H Y97N |
| nd | 0/3 | V39N P101C |
| nd | 0/3 | S26F V39T H98L |
| nd | 0/3 | L30E T59P L100N |
| nd | 0/3 | S26V L100D P101R |

A selection of 5 entries from above:

changes,Kd (apparent),detected
K24T A57W L100I,260 µM,1/3
S25R S28Q P101Q,610 nM,3/3
Y31L A40T A57M,5.4 µM,1/3
S25R L30C L102T,nd,0/3
K24Q H98I R99G,110 nM,3/3

Empty control strains, which show no peptide, gave a signal in 18% of pairings with library AAYL50; the median was 15 µM and 95% of these signals were weaker than 970 nM. No background was subtracted.